The target in this assay is Histone deacetylase 2 (Homo sapiens, UniProt Q92769). Briefly: Inhibition of human HDAC2.

Sequences of proteins named here, by UniProt entry; tags and fusion partners are left off.
UniProt Q92769, whole entry: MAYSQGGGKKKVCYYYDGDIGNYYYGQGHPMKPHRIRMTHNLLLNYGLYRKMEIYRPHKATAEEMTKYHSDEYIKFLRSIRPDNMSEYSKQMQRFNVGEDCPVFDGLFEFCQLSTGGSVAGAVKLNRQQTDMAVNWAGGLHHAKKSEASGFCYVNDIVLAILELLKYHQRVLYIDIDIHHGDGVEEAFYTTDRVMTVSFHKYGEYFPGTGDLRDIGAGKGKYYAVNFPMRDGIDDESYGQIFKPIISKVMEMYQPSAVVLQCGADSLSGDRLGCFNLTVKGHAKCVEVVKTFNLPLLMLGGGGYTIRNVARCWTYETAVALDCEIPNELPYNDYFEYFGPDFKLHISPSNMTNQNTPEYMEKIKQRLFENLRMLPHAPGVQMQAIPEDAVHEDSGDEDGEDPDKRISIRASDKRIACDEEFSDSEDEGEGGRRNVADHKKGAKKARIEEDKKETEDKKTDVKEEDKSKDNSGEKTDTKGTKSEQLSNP

These results are taken from ChEMBL document CHEMBL1153969, “N-Hydroxy-(4-oxime)-cinnamide: a versatile scaffold for the synthesis of novel histone deacetylase [correction of deacetilase] (HDAC) inhibitors” (Bioorg Med Chem Lett, 2009).

For the compound `O=C(/C=C/c1ccc(-c2cc(CN3CCOCC3)on2)cc1)NO`, half-maximal inhibition (IC50) required 13.2 µM. This counts as double-digit micromolar.
